Test results as given in ChEMBL document CHEMBL4811262, “Parallel discovery of selective and dual inhibitors of tryptophan dioxygenases IDO1 and TDO2 with a newly-modified enzymatic assay” (Bioorg Med Chem, 2021).

By UniProt entry, the sequences of proteins in these tests, tags left out. Where a name states a change or a piece, a line headed by the entry shows the natural chain unless it says otherwise.
UniProt P48775: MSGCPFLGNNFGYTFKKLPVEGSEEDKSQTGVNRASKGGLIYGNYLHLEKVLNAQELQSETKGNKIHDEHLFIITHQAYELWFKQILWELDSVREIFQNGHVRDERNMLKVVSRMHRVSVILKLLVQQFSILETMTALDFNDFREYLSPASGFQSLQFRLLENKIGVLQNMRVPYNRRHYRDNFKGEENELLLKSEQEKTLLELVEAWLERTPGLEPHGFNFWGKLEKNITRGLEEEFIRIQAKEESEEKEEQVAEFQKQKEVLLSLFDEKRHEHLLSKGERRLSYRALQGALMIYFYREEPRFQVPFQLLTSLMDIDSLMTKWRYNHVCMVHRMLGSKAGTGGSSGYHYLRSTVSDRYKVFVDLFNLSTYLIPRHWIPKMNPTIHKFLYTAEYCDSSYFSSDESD

How the values were obtained:
[1] = molecular target: T1, Tryptophan 2,3-dioxygenase (Homo sapiens, UniProt P48775); assay: Inhibition of recombinant human TDO2 expressed in Escherichia coli BL21 (DE3) assessed as reduction in N-formylkynurenine formation using L-tryptophan as substrate incubated for 30 mins by methylene blue reagent based assay
[2] = molecular target: T1, Tryptophan 2,3-dioxygenase; assay: Inhibition of recombinant human TDO2 expressed in Escherichia coli BL21 (DE3) assessed as reduction in N-formylkynurenine formation using L-tryptophan as substrate incubated for 30 mins by methylene blue reagent based concurrent assay

`Fc1ccc2c(/C=C/c3cccnc3)c[nH]c2c1` was tested, and the IC50 [1] was 110 nM and the IC50 [2] was 310 nM.
